Patent publication US11141411B2, “Methods of treating neurological, metabolic, and other disorders using enantiopure deuterium-enriched pioglitazone” (Poxel SA, priority 2014, dated 2021)
Read-outs that look alike come from different tables or passages of the source.

Tests used:
[1] = for effect of deuterium incorporation on half-life, deuterated vs. protonated enantiomer: plasma stability study, species not specified in the sentence (human and mouse studied)
[2] = mouse plasma; average of constants fitted for h-S and h-R, fixed in d-rac analysis
db/db mice = assay: db/db mouse model of type II diabetes, 10-day daily oral dosing; conditions: daily oral gavage 10 days, d-R-pio 20 mg/kg, h-rac-pio 30 mg/kg; for decrease of inflammatory biomarker serum amyloid A: vs. vehicle; for non-essential fatty acids / serum triglycerides: d-S-pio 20 mg/kg, terminal blood
[3] = human plasma, average of constants fitted for h-S and h-R, fixed in d-rac analysis

SMILES | k RS* (enantiomerization h-R-pio to h-S-pio) [1, 3] [h⁻¹] | k SR* (enantiomerization h-S-pio to h-R-pio) [1, 3] [h⁻¹] | k RS* (enantiomerization h-R-pio to h-S-pio) [2] [h⁻¹] | k SR* (enantiomerization h-S-pio to h-R-pio) [2] [h⁻¹] | decrease of inflammatory biomarker serum amyloid A (db/db mice) | non-essential fatty acids (db/db mice) | serum triglycerides (db/db mice) | effect of deuterium incorporation on half-life, deuterated vs. protonated enantiomer [1]
[2H]C1(Cc2ccc(OCCc3ccc(CC)cn3)cc2)SC(=O)NC1=O (racemic) [d-rac-pio] | 0.440 | 0.433 | 0.743 | 0.924 |  |  |  | 
CCc1ccc(CCOc2ccc(CC3SC(=O)NC3=O)cc2)nc1 (racemic) [h-rac-pio, rac-5-({p-[2-(5-Ethyl-2-pyridyl)ethoxy]phenyl}methyl)-1,3-thiazolidine-2,4-dione, reference compound] |  |  |  |  | statistically significant | a similar trend was observed | The same was observed | 
[2H][C@]1(Cc2ccc(OCCc3ccc(CC)cn3)cc2)SC(=O)NC1=O [d-R-pio, (R)-5-({p-[2-(5-ethyl-2-pyridyl)ethoxy]phenyl}methyl)-(5-^2H)-1,3-thiazolidine-2,4-dione] |  |  |  |  | statistically significant | a similar trend was observed | The same was observed | approximately two-fold
[2H][C@@]1(Cc2ccc(OCCc3ccc(CC)cn3)cc2)SC(=O)NC1=O [d-S-pio, (S)-5-({p-[2-(5-Ethyl-2-pyridyl)ethoxy]phenyl}methyl)-(5-^2H)-1,3-thiazolidine-2,4-dione] |  |  |  |  |  | a similar trend was observed | The same was observed | approximately the same as the half-life for h-S-pio
